{"source": "patent US6391871B1", "about": "(priority 1996, dated 2002)", "test_system": "pyramidal neurons in layers III and IV of the posterior cingulate and retrosplenial (PC/RS) cortices", "assay": "In vivo assay of toxic side effects of NMDA antagonists (vacuole formation in PC/RS cortex)", "note": "Entries after “also recorded” stand apart in the source; their conditions may differ."}
{"substance": "Ibogaine", "values": [{"measurement": "neurotoxic reaction in the PC/RS cortex at the highest dose tested", "setting": "100 mg/kg/ip, rats", "value": "did not cause a neurotoxic reaction"}, {"measurement": "neurotoxic (vacuole) reaction in PC/RS cortex, drug by itself", "setting": "adult female rats, ip, sacrificed four hours after treatment", "value": "did not cause this neurotoxic reaction; also recorded: neither SKF (+)10,047 nor ibogaine by itself caused vacuoles"}, {"measurement": "vacuole reaction in PC/RS neurons, drug combined with sigma agonist SKF (+)10,047", "setting": "co-administered with SKF (+)10,047, rats", "value": "caused a vacuole reaction in PC/RS neurons"}, {"measurement": "nearly a lethal dose (highest dose tested)", "setting": "rats", "value": 100, "unit": "mg/kg/ip"}]}
